Reference: US9522888B2, “Substituted bicyclic compounds” (BRISTOL-MYERS SQUIBB COMPANY, priority 2014, dated 2016)

Chains of the proteins cited; added tags and fusions are not shown.
UniProt P21453, whole entry: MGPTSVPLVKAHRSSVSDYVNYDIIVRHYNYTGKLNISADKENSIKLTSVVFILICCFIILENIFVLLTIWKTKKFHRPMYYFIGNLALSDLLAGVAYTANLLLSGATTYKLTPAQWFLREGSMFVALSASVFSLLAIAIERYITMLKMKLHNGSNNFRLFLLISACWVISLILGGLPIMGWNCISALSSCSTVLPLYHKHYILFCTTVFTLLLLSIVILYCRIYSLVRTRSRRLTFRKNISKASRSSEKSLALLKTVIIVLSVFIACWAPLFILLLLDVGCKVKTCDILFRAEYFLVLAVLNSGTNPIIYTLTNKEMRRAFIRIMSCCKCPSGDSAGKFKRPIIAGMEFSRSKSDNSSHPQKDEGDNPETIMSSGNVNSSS

These molecules were tested against human S1P1 (Homo sapiens (Human), UniProt P21453) (assay: S1P1 binding assay (33P-S1P radioligand competition, CHO cell membranes)). Settings: 33P-S1P competition, membranes of CHO cells expressing human S1P1.
Description: Membranes were prepared from CHO cells expressing human S1P1. Cells pellets (1×10^9 cells/pellet) were suspended in buffer containing 20 mM HEPES (4-(2-hydroxyethyl)-1-piperazineethanesulfonic acid), pH 7.5, 50 mM NaCl, 2 mM EDTA (Ethylenediaminetetraacetic acid) and Protease Inhibitor cocktail (Roche), and disrupted on ice using the Polytron homogenizer. The homogenate was centrifuged at 20,000 rpm (48,000 g) and the supernatant was discarded. The membrane pellets were resuspended in buffer containing 50 mM HEPES, pH 7.5, 100 mM NaCl, 1 mM MgCl2, 2 mM EDTA and stored in aliquots at −80° C. after protein concentration determination.
The IC50 is defined as the concentration of competing ligand needed to reduce specific binding by 50%.

| IC50 [nM] | SMILES |
| --- | --- |
| 69.4 | COc1ccccc1CCC1CCc2cc(C3CC[C@](N)(COP(=O)(O)O)C3)ccc2C1 (single isomer, unassigned) [Example 698] |
| 48.7 | COc1cccc(OCC2CCc3cc([C@@H]4CC[C@](N)(COP(=O)(O)O)C4)ccc3C2)c1 (single isomer, unassigned) [Example 701] |
| 151 | COc1cccc(OCC2CCc3cc([C@@H]4CC[C@](N)(COP(=O)(O)O)C4)ccc3C2)c1 (single isomer, unassigned) [Example 702] |
| 183 | COc1ccccc1CC[C@@H]1CCc2cc([C@@H]3CC[C@](N)(COP(=O)(O)O)C3)ccc2C1 [Example 699] |

Each molecule was assayed against S1P1 (membranes prepared from S1P1/CHO cells) (Homo sapiens (Human), UniProt P21453) (assay: Receptor [35S] GTPγS binding assay (S1P1 GTPγS)). Settings: S1P1/CHO cell membranes.
Format: biochemical
Description: Receptor [^35S] GTPγS Binding Assays: (S1P1 GTPγS/S1P3 GTPγS)
Compounds were loaded in a 384 Falcon v-bottom plate (0.5 μl/well in a 11 point, 3-fold dilution). Membranes prepared from S1P1/CHO cells or EDG3-Gal5-bla HEK293T cells (EDG3 equivalent S1P3) were added to the compound plate (40 μl/well, final protein 3 μg/well) with MULTIDROP®. [^35S] GTP (1250 Ci/mmol, Perkin Elmer) was diluted in assay buffer: 20 mM HEPES, pH7.5, 10 mM MgCl2, 150 mM NaCl, 1 mM EGTA (ethylene glycol tetraacetic acid), 1 mM DTT (Dithiothreitol), 10 μM GDP, 0.1% fatty acid free BSA, and 10 μg/ml Saponin to 0.4 nM. 40 μl of the [^35S] GTP solution was added to the compound plate with a final concentration of 0.2 nM. The reaction was kept at room temperature for 45 min. At the end of incubation, all the mixtures in the compound plate were transferred to Millipore 384-well FB filter plates via the VELOCITY11® Vprep liquid handler. The filter plate was washed with water 4 times by using the manifold Embla plate washer and dried at 60° C. for 45 min. MicroScint 20 scintillation fluid (30 μl) was added to each well for counting on the Packard TOPCOUNT®. EC50 is defined as the agonist concentration that corresponds to 50% of the Ymax (maximal response) obtained for each individual compound tested. […]

| EC50 [nM] | SMILES |
| --- | --- |
| 0.6 | COc1ccccc1CC[C@@H]1CCc2cc([C@H]3CC[C@](N)(COP(=O)(O)O)C3)ccc2C1 (single isomer, unassigned) [Example 697] |
| 120 | COc1cccc(OCC2CCc3cc([C@@H]4CC[C@](N)(COP(=O)(O)O)C4)ccc3C2)c1 (single isomer, unassigned) [Example 702] |
